The subject of the assay is NF-κB activation. In words: NF-κB activation (SAR analogs and biotin probes). The conditions noted are these: in the presence of excess reducing agent dithiothreitol (DTT).

Each structure is given as a SMILES string.

For the compound `C=C1C(=O)O[C@@H]2[C@@H]3[C@@H](C[C@@]4(O)[C@]3(O)CC[C@]43C(=O)C[C@H]4C(=C)CC[C@H]5C(=C)C(=O)O[C@@H]5[C@H]43)C(=C)CC[C@@H]12` [Compound 223, (+)-Ainsliadimer A], the “inhibitory activity against NF-κB activation” value was “lost its inhibitory activity”.

For the origin of these results see US9670226B2, “Sesquiterpenoids” (National Institute of Biological Sciences, Beijing, priority 2014, dated 2017).
